Assay results reported in patent US8110398B2, “Stable cell lines and methods for evaluating gastrointestinal absorption of chemicals” (Absorption Systems Group, LLC, priority 2006, dated 2012).

Protein sequences, listed by entry. Tags and fused reporters are not part of them.
UniProt P08183, whole entry: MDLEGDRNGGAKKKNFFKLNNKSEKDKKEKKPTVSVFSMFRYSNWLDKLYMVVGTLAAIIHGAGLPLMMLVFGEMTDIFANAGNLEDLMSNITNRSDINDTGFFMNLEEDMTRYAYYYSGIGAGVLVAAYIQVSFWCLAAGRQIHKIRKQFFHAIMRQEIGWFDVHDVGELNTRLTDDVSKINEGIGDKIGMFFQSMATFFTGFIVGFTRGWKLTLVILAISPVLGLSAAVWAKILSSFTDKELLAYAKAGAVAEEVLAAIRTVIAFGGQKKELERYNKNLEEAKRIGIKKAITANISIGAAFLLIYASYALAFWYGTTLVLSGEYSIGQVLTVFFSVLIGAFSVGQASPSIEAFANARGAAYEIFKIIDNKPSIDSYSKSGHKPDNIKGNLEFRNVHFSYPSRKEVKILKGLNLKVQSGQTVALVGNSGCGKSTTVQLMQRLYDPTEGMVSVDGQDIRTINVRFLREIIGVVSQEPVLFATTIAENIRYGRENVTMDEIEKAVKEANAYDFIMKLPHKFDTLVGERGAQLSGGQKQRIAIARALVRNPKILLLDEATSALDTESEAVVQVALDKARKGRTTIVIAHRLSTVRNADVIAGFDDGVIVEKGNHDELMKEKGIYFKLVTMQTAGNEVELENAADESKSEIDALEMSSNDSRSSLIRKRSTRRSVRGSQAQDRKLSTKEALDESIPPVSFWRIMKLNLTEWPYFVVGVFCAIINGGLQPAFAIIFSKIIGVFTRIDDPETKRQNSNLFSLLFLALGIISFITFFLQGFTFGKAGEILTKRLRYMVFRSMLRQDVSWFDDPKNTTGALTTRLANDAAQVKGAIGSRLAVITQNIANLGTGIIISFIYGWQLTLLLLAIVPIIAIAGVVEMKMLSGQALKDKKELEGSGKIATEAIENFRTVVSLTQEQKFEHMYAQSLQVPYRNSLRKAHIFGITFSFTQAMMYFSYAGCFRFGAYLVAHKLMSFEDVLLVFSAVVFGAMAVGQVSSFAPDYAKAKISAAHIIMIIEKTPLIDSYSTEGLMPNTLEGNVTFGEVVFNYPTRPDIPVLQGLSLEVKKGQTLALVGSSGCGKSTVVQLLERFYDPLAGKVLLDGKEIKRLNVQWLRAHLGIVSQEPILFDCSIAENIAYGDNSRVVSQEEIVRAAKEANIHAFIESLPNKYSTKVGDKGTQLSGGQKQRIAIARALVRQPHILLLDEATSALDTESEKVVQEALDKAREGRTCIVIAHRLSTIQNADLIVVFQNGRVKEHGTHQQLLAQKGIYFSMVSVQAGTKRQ

How the values were obtained:
[1] = reference values; cited from earlier work
[2] = target: P-gp (Homo sapiens, UniProt P08183); conditions: from efflux ratios in clone #801 and parental C2BBe1 cells
[3] = test system: C2BBE1 cells; conditions: reference values; cited from earlier work

Row | Substance | % Absorption in human [1] [%] | P-gp Substrate? [2] | Papp in C2BBE1 cells [3]
1 | 1-Deamino-8-D-arginine | 1 | – | –
2 | Sulfasalazine | – | not a P-gp substrate and No | 0.13 10^−6 cm/s
